This is an account of results in PMC11847841, “The development and evaluation of a tublysine-based antibody-drug conjugate with enhanced tumor therapeutic efficacy” (Frontiers in Pharmacology, 2025).

Series [1] deals with SK-BR-3 (HER2 positive cell). Briefly: Flow cytometry binding to SK-BR-3 cells. Set-up: species or system human. On the procedure:
(§1) BT-474, SK-BR-3, and MDA-MB-468 cells were cultured to the exponential growth phase, detached with 0.25% trypsin, and resuspended in 2% FBS-PBS. A total of 200 μL of the cell suspension (5 × 10^4 cells per well) was seeded into 96-well plates, centrifuged at 4°C, 2,000 rpm for 1 min, and the supernatant was carefully aspirated. DX-CHO9 and Herceptin were diluted in 2% FBS-PBS to final concentrations ranging from 50 to 0.0005 μg/mL. Two hundred microliters of each dilution was added to the wells, and the plates were incubated at 4°C for 100 min. The plates were then centrifuged at 4°C, 2,000 rpm for 1 min, followed by two washes with 2% FBS-PBS. Subsequently, a PE-labeled secondary anti-human IgG antibody (200 μL per well; Santa Cruz Biotechnology) was added, and the plates were incubated at 4°C for 40 min. After two additional washes with 2% FBS-PBS, fluorescence signals were detected using a flow cytometer (Guava, Merck Millipore). Data analysis was conducted using Guava Soft 3.1.1 software.

The test system of series [2] is HER2-positive BT-474 cells. Briefly: In vitro endocytosis into BT-474 cells. The series is classed as cell-based, human. The procedure:
(§2) BT-474 and SK-BR-3 cells were cultured to the exponential growth phase, harvested, and washed with pre-cooled PBS. […] Alexa Fluor 488-conjugated goat anti-human IgG (H + L) secondary antibody (10 μg/mL; Invitrogen, Shanghai, China) was subsequently added, and the cells were incubated on ice for 30 min. After additional washes, the cells were resuspended in pre-cooled PBS, divided into five aliquots, and incubated at 37°C for 0, 10, 30, 90, or 120 min. At each time point, cells were further split into two sub-aliquots: one treated with Trypan Blue to quench extracellular fluorescence and the other with PBS as an unquenched control. Fluorescence intensity was measured using a flow cytometer (Guava, Merck Millipore). The percentage of endocytosis was calculated as the ratio of quenched to unquenched fluorescence multiplied by 100%.

For series [3], the system named is HER2-positive SK-BR-3 cells. Briefly: In vitro endocytosis into SK-BR-3 cells. Type of series: cell-based, human. On the procedure: as §2
The test system of series [4] is BT-474 human breast cancer xenografts. Briefly: BT-474 xenograft efficacy study. The series is classed as in vivo, BALB/c nude mice. The settings on record: BT-474 model, 10 mg/kg single i.v.
Series [5] has as its system BT-474 (HER2 positive cell). Briefly: Flow cytometry binding to BT-474 cells. Details: species or system human. On the procedure: as §1
(In general: In flow cytometry, cells or beads pass a laser one at a time.)

In series [6] the test system is NCI-N87 human gastric cancer xenografts. Briefly: NCI-N87 xenograft efficacy study. Conditions: for T/C%: NCI-N87 model (Fig 3D, n = 5). Type of series: in vivo, BALB/c nude mice.
The conditions of series [7]: human, in vivo; cited from earlier work.

What is called Kd is the constant that tells how readily two partners part at equilibrium. For the substance “Herceptin: Herceptin (Roche), purchased from a local pharmacy; anti-HER2 antibody comparator”, the Kd in series [1] is 0.07867 µg/mL; in series [5], 0.1365 µg/mL. The “Endocytosis Efficiency” value in series [2] (BT-474, incubation time 0 min) turned out to be 11.3%; in series [2] (BT-474, incubation time 10 min), 30%; in series [2] (BT-474, incubation time 30 min), 36%; in series [2] (BT-474, incubation time 90 min), 41.8%; in series [2] (BT-474, incubation time 120 min) it was 39.9%; in series [3] (SK-BR-3, incubation time 0 min), 10.1%. The “Endocytosis Efficiency” value was determined as 13.6% in series [3] (SK-BR-3, incubation time 10 min); 18.8% in series [3] (SK-BR-3, incubation time 30 min); 35% in series [3] (SK-BR-3, incubation time 90 min); 37.4% in series [3] (SK-BR-3, incubation time 120 min). In series [4], this substance displayed a T/C% of 38.8%.
For trastuzumab deruxtecan [Enhertu], the “Complete tumor regression (animals)” value in series [6] (NCI-N87 model (Fig 3D), 6 mg/kg) was “five out of five animals”. The T/C% is reported as 30.8% in series [6] (1.5 mg/kg) and 0% in series [6] (6 mg/kg). The ILD/pneumonitis incidence in series [7] is recorded as 13.6%.
